Results on 1 compound are retold here after BindingDB's records for doi:10.1016/s0014-2999(03)02008-9 (Harvard University, 2003).

Protein sequences, listed by entry. Tags and fused reporters are not part of them.
UniProt P61169, whole entry: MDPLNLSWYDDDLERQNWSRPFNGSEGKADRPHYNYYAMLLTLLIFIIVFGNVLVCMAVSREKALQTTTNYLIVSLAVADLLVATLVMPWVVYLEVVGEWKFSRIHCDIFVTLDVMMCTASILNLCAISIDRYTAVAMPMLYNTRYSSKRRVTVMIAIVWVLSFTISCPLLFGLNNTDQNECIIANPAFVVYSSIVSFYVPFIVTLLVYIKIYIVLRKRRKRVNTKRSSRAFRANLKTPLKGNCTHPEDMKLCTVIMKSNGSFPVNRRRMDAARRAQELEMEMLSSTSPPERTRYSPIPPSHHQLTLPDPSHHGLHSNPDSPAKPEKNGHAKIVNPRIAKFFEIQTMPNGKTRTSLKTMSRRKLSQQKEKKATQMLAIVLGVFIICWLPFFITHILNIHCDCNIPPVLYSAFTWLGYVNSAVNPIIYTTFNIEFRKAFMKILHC

The assay concerns the target D(2) dopamine receptor (Rattus norvegicus, UniProt P61169).

By Ki is commonly meant a measure of affinity in units of concentration, obtained from inhibition or displacement. Low readings indicate higher affinity, high ones lower affinity.

Each structure is given as a SMILES string.

Compound `Cc1ccccc1C1CN(C)CCc2c1cc(O)c(O)c2Cl` (stereo unspecified) [NSC_0] registered a Ki of 226 nM.
